The structures appear in SMILES notation. This is a selection; strong and weak results do not stand in their true shares. Some tests of the compounds listed are not included; inactive here does not mean inactive elsewhere. Activity calls are given as the source filed them.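 Rule for the calls: active = z-score above 3 at 5 µM with at least 500 cells counted in the well; inconclusive = wells under 500 cells, flagged as cytotoxic or low count; inactive = the rest.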

A short description of this experiment: insulin promoter activators in MIN6 cells, imaging, high-content screening, mouse beta cells (AID 1625). Particulars: MIN6 insulin promoter-GFP reporter, at 5 µM, hits give high values.
Regarding `CCN(CC)CC(C)C(C)OC(=O)C(O)(c1ccccc1)c1ccccc1` (stereo not given), the z-score is inactive: -0.25.
The result for `CC(C)N1C(=O)CC2(CCN(CCOC(=O)C(O)(c3ccccc3)c3ccccc3)CC2)C1=O` reads inactive: 1.07; that for `CCN1CCCC(OC(=O)C2(O)c3ccccc3C=Cc3ccccc32)C1` (stereo not given), inactive: -0.4; that for `C=CCN1CCN(CCOC(=O)C(O)(c2ccccc2)c2ccccc2)CC1`, inactive: 0.02.
`CN(C)C1CCCC1OC(=O)C(O)(c1ccccc1)c1ccccc1` (stereo not given): the z-score is inactive: -1.16.
For `Cc1ccccc1C(=O)NCC1(N2CCCCC2)CCCCC1`, the z-score is inactive: -0.12.
Take `COc1cccc(C(=O)NCC2(N3CCCCC3)CCCCC2)c1`: the z-score was inactive: -0.24.
The result for `CN(C)c1cccc(C(=O)NCC2(N(C)C)CCCCC2)c1` reads inactive: -0.06.
On to `COc1ccc(Br)c(C(=O)NCC2(N3CCCCC3)CCCCC2)c1`, for which the z-score is inactive: 1.22.
Take `O=C(OC1CN2CCC1CC2)C(CO)(c1ccccc1)c1ccccc1` (stereo not given): the z-score is inactive: -2.74.

Source of the values: PubChem BioAssay AID1625 (Sanford-Burnham Center for Chemical Genomics, 2009).
